The record followed here is PubChem BioAssay AID2012 (Sanford-Burnham Center for Chemical Genomics, 2009).

Broadly, the inhibition is the drop in the measured response relative to a control, in per cent.

Molecules are shown by their SMILES. The list shows a part of the results, in another mix than the full data. Some results for these compounds are left out of this collection, so the calls shown say nothing about other tests. The source made the active and inactive calls. No rule for the calls is given here.

This test deals with Eukaryotic translation initiation factor 4H (Homo sapiens) (UniProt Q15056). Description: eIF4H binding inhibition – biochemical, uHTS, fluorescence polarization, translation initiation inhibitor project, primary screen (AID 2012). As to conditions: eIF4H fluorescence polarization binding assay; at 35 µM; active compounds read high. On the technique in general: Polarisation of emitted light reports the rotation of a fluorescent probe.
Regarding `COc1cc(C(=O)NCC2(N(C)C)CCCCC2)c([N+](=O)[O-])cc1OC`, the inhibition was inactive: 5.7%.

Consider `CN(C)C1(CNC(=O)c2ccc(Br)cc2)CCCCC1`, for which the inhibition is inactive: 3.4%.

On to `O=C(NCC1(N2CCCCC2)CCCCC1)c1cccc(Cl)c1`, for which the inhibition is inactive: 3.4%.

For the molecule `COc1cccc(C(=O)NCC2(N3CCCCC3)CCCCC2)c1`, the inhibition was inactive: 3.3%.

Regarding `COc1ccc(Cl)cc1C(=O)NCC1(N(C)C)CCCCC1`, the inhibition was inactive: -5%.

`O=C(OC1CN2CCC1CC2)C(CO)(c1ccccc1)c1ccccc1` (centres undefined): the inhibition is inactive: -1.2%.

Turning to `CN(C)c1cccc(C(=O)NCC2(N(C)C)CCCCC2)c1`, the inhibition was inactive: -1.1%.

As for `CC(C)Oc1ccc(C(=O)NCC2(N(C)C)CCCCC2)cc1`, the inhibition was inactive: 8%.

Regarding `COc1ccc(Br)c(C(=O)NCC2(N3CCCCC3)CCCCC2)c1`, the inhibition was inactive: 0.1%.

As for `CN1[C@@H]2CC[C@H]1CC(OC(=O)C(O)(c1ccccc1)c1ccccc1)C2` (some centres undefined), the inhibition was inactive: -6%.

For the molecule `O=C(NCC1(N2CCCCC2)CCCCC1)c1cc([N+](=O)[O-])ccc1Cl`, the inhibition is inactive: 3.6%.

Regarding `Cc1ccc(C(=O)NCC2(N3CCCCC3)CCCCC2)cc1`, the inhibition is inactive: 4%.

Regarding `CC(C)N1C(=O)CC2(CCN(CCOC(=O)C(O)(c3ccccc3)c3ccccc3)CC2)C1=O`, the inhibition is inactive: -8.1%.

Consider `CCN(CC)CC(C)C(C)OC(=O)C(O)(c1ccccc1)c1ccccc1` (centres undefined), for which the inhibition was inactive: -0.8%.

Consider `COc1cc(SC)ccc1C(=O)NCC1(N(C)C)CCCCC1`, for which the inhibition is inactive: 0%.

As for `Cc1ccccc1C(=O)NCC1(N2CCCCC2)CCCCC1`, the inhibition is inactive: 3%.

Turning to `CN(C)c1ccc(C(=O)NCC2(N(C)C)CCCCC2)cc1`, the inhibition is inactive: 10%.

Consider `CN(C)C1CCCC1OC(=O)C(O)(c1ccccc1)c1ccccc1` (centres undefined), for which the inhibition is inactive: -6.7%.

`CCN1CCCC(OC(=O)C2(O)c3ccccc3C=Cc3ccccc32)C1` (centres undefined): the inhibition is inactive: 6.9%.

On to `Cc1cc(C(=O)NCC2(N3CCCCC3)CCCCC2)ccc1[N+](=O)[O-]`, for which the inhibition is inactive: -8.7%.

On to `O=C(NCC1(N2CCCCC2)CCCCC1)c1cccc(Br)c1`, for which the inhibition was inactive: -1%.

Regarding `COc1ccc(C(=O)NCC2(N(C)C)CCCCC2)cc1`, the inhibition is inactive: -4.6%.

For `C=CCN1CCN(CCOC(=O)C(O)(c2ccccc2)c2ccccc2)CC1`, the inhibition was inactive: -8.2%.

Turning to `O=C(NCC1(N2CCCCC2)CCCCC1)c1cc(F)c(F)cc1Cl`, the inhibition is inactive: -11.2%.
